Results on 1 compound are retold here after article PMC7538598 (Scientific Reports, 2020).

SMILES strings stand for the structures. “And” between values parts separate entries of the source, which are not always exact repeats. Identical values can stand only once.

The assay concerns the target T1, α1-GFP GlyR (Homo sapiens, UniProt P23415).
T1 construct: made in house; host or cells: Xenopus laevis oocytes injected with cRNA; total solubilized membranes in SMA nanodiscs
T1 sequence (P23415 29-457): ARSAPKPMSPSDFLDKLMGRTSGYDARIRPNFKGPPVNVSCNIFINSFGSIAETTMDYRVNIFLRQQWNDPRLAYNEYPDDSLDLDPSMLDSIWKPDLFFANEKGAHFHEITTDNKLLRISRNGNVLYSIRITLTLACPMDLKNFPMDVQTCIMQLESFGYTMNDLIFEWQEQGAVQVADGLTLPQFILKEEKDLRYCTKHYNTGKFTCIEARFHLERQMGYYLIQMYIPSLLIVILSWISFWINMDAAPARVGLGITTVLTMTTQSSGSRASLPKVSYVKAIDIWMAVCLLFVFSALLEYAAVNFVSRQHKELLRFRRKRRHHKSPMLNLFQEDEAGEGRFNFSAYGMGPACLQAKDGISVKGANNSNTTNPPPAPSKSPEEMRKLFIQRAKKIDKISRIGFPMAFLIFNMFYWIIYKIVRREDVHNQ
Description: MST of α1-GFP GlyR SMA-copolymer nanodiscs (total solubilized membranes) from X. laevis oocytes. The format is binding. The protocol: cRNA was synthesized using the AmpliCap-Max T7 High Yield Message Maker Kit (Cellscript, Madison, WI, USA). Therefore GFP-GlyR α1 in pCDNA3.1(+) was linearized with NotI. Oozytes were surgically taken from female X. laevis after anesthesia with 0.1% Tricaine in water. For SMA-copolymer solubilization, 300–400 oocytes were injected with 50 ng in a volume of 50.6 nl of cRNA. After injection the oocytes were incubated in ND-96 solution (96 mM NaCl, 2 mM KCl, 1 mM CaCl2, 1 mM MgCl2, 5 mM HEPES, pH 7.4) at 18 °C for 1–2 days.

Take `NCCS(=O)(=O)O` [taurine]: the “Hill coefficient (MST)” value was found to be 0.8. Further, under “mean ± SD”, the MST signal amplitude is 1.32 ± 0.17 and 1.32 ± 0.14.
